System: HepB5 cells
Details: 50 mM ethanol, 48 hr, DCFDA units per mg protein, 3 experiments

CCO [ethanol]
ROS production, fold-higher: 2.5 fold
